Data as given in US20030161893A1, “PTPase inhibitors and methods of using the same” (priority 2001, published 2003).

Test system: WM9 cells
Assay: Cell proliferation assay (MTT), WM9 melanoma cells
Assay type: cell-based, human
Settings: day 6
Protocol: For cell proliferation assays, cells were grown in 10% FCS culture medium containing various amounts of IFNs and/or sodium stibogluconate in 96 well plates and cultured at 37° C. for 3 or 6 days as indicated. The numbers of viable cells in proliferation assays were determined by MTT assays as described in Phatak et al., J. Immunol. 167, 3391 (2001).
Median effect analysis (Chou et al., Adv. Enzyme Regul. 22, 27 (1984)), which provides the most general form of studying the interactions between drugs, was utilized to analyze the interaction between sodium stibogluconate and IFN-alpha or IFN-beta. Dose response curves were generated for each drug alone, and also the combinations. Median effect plots were generated for IFNs alone, sodium stibogluconate alone, and the combination. The combination index (CI) was determined and plotted vs. fraction affected (FA). Data were analyzed in both modes, mutually exclusive and mutually nonexclusive. The interaction between two mutually nonexclusive drugs is described by the Equation CI=D1/D×1+D2/D×2+D1D2/D×1D×2, where D×1 and D×2 are the doses of drug 1 and drug 2 that are required to inhibit growth×%. […] When CI<1, drugs are synergistic, when CI=1, drugs are additive, and when CI>1, drugs are antagonistic.

B1: IFN-beta: Recombinant human IFN-beta (protein, UniProt P01574 22-187, looked up)
Interferon beta: MSYNLLGFLQRSSNFQCQKLLWQLNGRLEYCLKDRMNFDIPEEIKQLQQFQKEDAALTIYEMLQNIFAIFRQDSSSTGWNETIVENLLANVYHQINHLKTVLEEKLEKEDFTRGKLMSSLHLKRYYGRILHYLKAKEYSHCAWTIVRVEILRNFYFINRLTGYLRN
  growth of WM9 cells with IFN alone: more potently
